Target: Neuronal acetylcholine receptor; alpha4/beta2 (Homo sapiens, UniProt P17787+P43681)
Assay: Binding affinity to alpha4beta2 nAChR
Format: protein-complex assay

Sequences of proteins named here, by UniProt entry; tags and fusion partners are left off. Residues count along the entry.
UniProt P17787, 26-502 limits assumed: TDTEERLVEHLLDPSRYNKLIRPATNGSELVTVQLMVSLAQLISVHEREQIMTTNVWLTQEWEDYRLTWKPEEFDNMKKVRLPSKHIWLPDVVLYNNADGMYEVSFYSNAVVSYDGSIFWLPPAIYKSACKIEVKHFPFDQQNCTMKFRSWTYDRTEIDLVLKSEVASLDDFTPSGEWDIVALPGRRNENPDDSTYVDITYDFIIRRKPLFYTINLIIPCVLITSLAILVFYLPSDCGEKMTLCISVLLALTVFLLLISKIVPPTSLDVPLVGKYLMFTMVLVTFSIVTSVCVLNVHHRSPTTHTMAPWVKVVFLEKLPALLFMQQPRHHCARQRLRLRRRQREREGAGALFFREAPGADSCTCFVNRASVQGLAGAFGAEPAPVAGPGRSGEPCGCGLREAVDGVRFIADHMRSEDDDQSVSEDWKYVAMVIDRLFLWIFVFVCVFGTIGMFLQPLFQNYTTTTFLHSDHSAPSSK
UniProt P43681, 27-627 limits assumed: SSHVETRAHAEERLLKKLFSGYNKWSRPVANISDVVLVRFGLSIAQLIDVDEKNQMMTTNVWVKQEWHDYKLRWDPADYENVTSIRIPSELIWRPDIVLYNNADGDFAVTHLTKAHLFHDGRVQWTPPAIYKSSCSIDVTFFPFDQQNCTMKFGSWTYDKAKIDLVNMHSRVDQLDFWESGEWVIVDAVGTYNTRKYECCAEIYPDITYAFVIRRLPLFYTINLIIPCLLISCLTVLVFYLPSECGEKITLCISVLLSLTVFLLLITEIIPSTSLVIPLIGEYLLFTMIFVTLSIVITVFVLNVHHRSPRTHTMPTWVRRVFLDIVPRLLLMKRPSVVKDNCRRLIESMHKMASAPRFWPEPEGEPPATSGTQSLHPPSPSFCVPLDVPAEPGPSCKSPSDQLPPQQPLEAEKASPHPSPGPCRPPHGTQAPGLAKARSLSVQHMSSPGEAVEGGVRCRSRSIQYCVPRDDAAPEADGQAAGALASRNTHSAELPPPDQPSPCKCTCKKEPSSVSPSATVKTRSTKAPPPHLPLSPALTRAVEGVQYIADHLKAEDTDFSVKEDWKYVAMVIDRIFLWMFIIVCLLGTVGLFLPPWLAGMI

Q: `CC(=O)C1=CCCC2CCC1N2` (stereo unspecified) was tested. Which Ki did it give?
A: 1.1 nM

Reference: ChEMBL document CHEMBL2176988 (J Med Chem, 2012)
